From ChEMBL document CHEMBL1132239, “Tricyclic farnesyl protein transferase inhibitors: crystallographic and calorimetric studies of structure-activity relationships” (J Med Chem, 1999)

Target: Protein farnesyltransferase (Homo sapiens, UniProt P49354+P49356)
Test: Inhibition of Farnesyltransferase
Type: protein-complex assay

NC(=O)N1CCC(CC(=O)N2CCC([C@@H]3c4ncc(Br)cc4CCc4cc(Cl)cc(Br)c43)CC2)CC1
IC50: 378 nM
